The values that follow are results of earlier work, collected in US20090317451A1, “PRESSURE-SENSITIVE ADHESIVE FOR SKIN SURFACE AND/OR TRANSDERMAL SUBSTANCE DELIVERY” (priority 2008, published 2009).

The conditions of this series: solvent(s) in which soluble; Merck 12th edition or other reference.

Some compounds may have been tested in ways that are not shown here.

On to `CCC(=O)N(c1ccccc1)C1CCN(CCc2ccccc2)CC1`, for which the “Reported Solubility” value is listed as “Alcohol”.
